From paper PMC3606182

Biological target: recombinant Sec61β lacking the tail-anchor region, immobilized
Experiment: pull-down; recombinant Sec61β with (+TA) or without (−TA) tail-anchor immobilised; [35S]-labelled wheat-germ translation product; processed as for SGTA; Triton X-100 sensitive binding read by phosphorimaging

“BAG6 (isoform 2), full length (from UniProt P46379-2 1-1126) (natural protein)” gave a signal as percent of that recovered with Sec61β+TA of under 3%.
